Bioassay records as filed in PubChem.
PDI turbidity: inhibitors of human PDI, primary screen, biochemical, turbidity, single point, plate reader | Protein disulfide-isomerase (Homo sapiens), P07237 | PDI insulin aggregation turbidity, A650, 90 min | inhibition, % at 10 µM | 350,000 compounds, 0.052% hits | AID 588391, 2011;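 active means mean inhibition across replicates of 30% or more, whatever share of single replicates reach that level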
Yeast UUG start: yeast start codon fidelity modulation; activity score, % at 18.7 µM; actives 0.13% (n = 350,000); S. cerevisiae UUG-firefly luciferase reporter, luminescence/redox ratio; AID 602363;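 active means replicate mean at a twofold rise or more, about +100% in these data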;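 further: firefly luciferase made from a UUG start codon reports start codon fidelity; reporter light over untreated wells divided by growth signal over untreated wells; some hits fall short of that in this replicate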
SIRT5 block: SIRT5 desuccinylase inhibitors, primary screen, biochemical, fluorescence imaging, single point, set 5; 330,000 compounds, 1.1% hits; inhibition, % at 15 µM; Purified SirT5, succinyl-peptide AMC, trypsin-coupled fluorescence; NAD-dependent protein deacylase sirtuin-5, mitochondrial (Homo sapiens), Q9NXA8; in the data active means inhibition above about 15%
S100A4 MyoIIA: inhibitors of S100A4-myosin IIA peptide binding, primary screen, biochemical, fluorescence polarization, TAMRA-MyoIIA peptide. Protein S100-A4 (Homo sapiens), P26447. inhibition, % at 10.7 µM. 360,000 compounds, 0.14% hits. AID 652163, 2013;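 active means mean inhibition of at least 70% across replicates, with every replicate also reaching that level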
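Material: human S100A4 monomer with TAMRA-labelled myosin IIA peptide; buffer or medium: HEPES pH 7.2 with CaCl2, KCl, NaCl, DTT, Triton; compound dosing: one concentration per compound; schedule: 5 min incubation before reading; benchmarks: neutral control DMSO, positive control TFP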
ERp5 block: inhibitors of ERp5-driven insulin aggregation, primary screen, biochemical, turbidity, absorbance 650 nm, single point | Protein disulfide-isomerase A6 (Homo sapiens), Q15084 | 90 min | inhibition, % at 9.99 µM | 350,000 compounds, 0.05% hits;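 active means mean replicate inhibition above about 25%, with every replicate also reaching it, limit read from the data, passing the limit was not always enough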
FGF22 binding: binders of human FGF22 protein, primary screen, FGF22 synaptogenesis inhibitor project, biophysical, thermal shift, single point. Fibroblast growth factor 22 (Homo sapiens), Q9HCT0. recombinant FGF22 thermal shift, SYPRO orange fluorescence; percent of sucrose octasulfate shift, DMSO zero. activity (Tm shift, normalised), % at 9.99 µM. 340,000 compounds, 1.5% hits;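 active means mean Tm shift, scaled 0 neutral to 100 positive control, at about 1.3% or above, every replicate too, limit read from the data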
Numbers stand for hits. Only some compounds are listed: those with a hit (about 2.2% of all), similar ones and a draw of the others.

Protein sequences, listed by entry. Tags and fused reporters are not part of them.
Protein disulfide-isomerase A6 (Homo sapiens), Q15084, UniProt Q15084, whole entry, looked up: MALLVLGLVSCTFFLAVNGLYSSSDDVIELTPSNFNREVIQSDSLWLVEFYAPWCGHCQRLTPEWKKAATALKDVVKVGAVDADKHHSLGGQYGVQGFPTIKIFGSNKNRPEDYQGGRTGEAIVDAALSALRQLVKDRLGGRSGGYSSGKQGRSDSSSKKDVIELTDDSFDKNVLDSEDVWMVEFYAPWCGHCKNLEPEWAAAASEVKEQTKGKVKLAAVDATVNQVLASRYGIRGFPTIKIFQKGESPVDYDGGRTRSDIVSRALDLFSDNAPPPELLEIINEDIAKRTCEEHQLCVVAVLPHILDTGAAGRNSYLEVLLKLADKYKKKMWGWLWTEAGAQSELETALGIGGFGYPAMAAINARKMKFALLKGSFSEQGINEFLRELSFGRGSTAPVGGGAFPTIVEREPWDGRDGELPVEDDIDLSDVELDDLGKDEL

For CN(C)C(=O)c1cccc(-c2ccc([C@H]3[C@H](CO)N4CCCCN(S(C)(=O)=O)C[C@@H]34)cc2)c1 the results were Yeast UUG start inactive, SIRT5 block inactive, S100A4 MyoIIA inactive, ERp5 block inactive and FGF22 binding inactive.
For CN(C)C(=O)c1ccc(-c2ccc([C@@H]3[C@@H](CO)N4CCCCN(CC5CC5)C[C@@H]34)cc2)cc1 the results were Yeast UUG start inactive, SIRT5 block inactive, S100A4 MyoIIA 108.9, ERp5 block inactive and FGF22 binding inactive.
C[C@H](CO)N1C[C@H](C)[C@H](CN(C)Cc2ccccn2)Oc2ncc(-c3ccccc3)cc2C1=O was read as Yeast UUG start inactive, SIRT5 block inactive, S100A4 MyoIIA inactive, ERp5 block inactive and FGF22 binding inactive.
O=C(NNc1ccccc1)c1ccc(Cl)c(Cl)c1 was read as PDI turbidity inactive, S100A4 MyoIIA inactive, ERp5 block inactive and FGF22 binding 43.2.
`Cc1ccc(S(=O)(=O)N(C)C[C@H]2Oc3ccc(NC(=O)Nc4c(C)noc4C)cc3CC(=O)N([C@H](C)CO)C[C@@H]2C)cc1` gave Yeast UUG start inactive, SIRT5 block inactive, S100A4 MyoIIA inactive, ERp5 block inactive and FGF22 binding inactive.
Screening Nc1cc2c(cc1Cl)-c1ccccc1C2=NO returned PDI turbidity inactive, Yeast UUG start inactive, SIRT5 block 23.7, S100A4 MyoIIA inactive, ERp5 block inactive and FGF22 binding inactive.
`ON=C1c2ccccc2-c2ccccc21` gave PDI turbidity inactive, Yeast UUG start inactive, SIRT5 block inactive, S100A4 MyoIIA inactive, ERp5 block inactive and FGF22 binding inactive.
For Cc1ccc(S(=O)(=O)N(C)C[C@@H]2Oc3cc(C#Cc4ccncc4)ccc3S(=O)(=O)N([C@@H](C)CO)C[C@@H]2C)cc1 the results were SIRT5 block 16.1, S100A4 MyoIIA inactive, ERp5 block inactive and FGF22 binding inactive.
Cc1ccc(S(=O)(=O)N(C)C[C@H]2Oc3cc(C#Cc4ccncc4)ccc3S(=O)(=O)N([C@H](C)CO)C[C@@H]2C)cc1 was read as SIRT5 block 17.5, S100A4 MyoIIA inactive, ERp5 block inactive and FGF22 binding inactive.
Cc1ccc(S(=O)(=O)N(C)C[C@H]2Oc3cc(C#Cc4ccncc4)ccc3S(=O)(=O)N([C@H](C)CO)C[C@H]2C)cc1 was read as SIRT5 block inactive, S100A4 MyoIIA inactive, ERp5 block inactive and FGF22 binding inactive.
For Cc1ccc(S(=O)(=O)N(C)C[C@@H]2OCCCC[C@H](C)Oc3ccc(NC(=O)NC(C)C)cc3C(=O)N([C@H](C)CO)C[C@H]2C)cc1 the results were Yeast UUG start inactive, SIRT5 block inactive, S100A4 MyoIIA inactive and ERp5 block inactive.
`Fc1ccc(/C=N/Nc2ccccn2)cc1` gave PDI turbidity inactive, SIRT5 block inactive, S100A4 MyoIIA inactive, ERp5 block inactive and FGF22 binding 43.7.
Screening Clc1ccc(/C=N/Nc2ccccn2)cc1 returned PDI turbidity inactive, Yeast UUG start inactive, SIRT5 block inactive, S100A4 MyoIIA inactive, ERp5 block inactive and FGF22 binding inactive.
C[C@@H]1CN([C@@H](C)CO)C(=O)Cc2cc(NC(=O)C3CCCCC3)ccc2O[C@H]1CN(C)Cc1ccc(C(=O)Nc2ccccc2N)cc1 was read as Yeast UUG start inactive, SIRT5 block inactive, S100A4 MyoIIA inactive, ERp5 block inactive and FGF22 binding inactive.
For O=C(Nc1ncc(S(=O)(=O)c2ccc([N+](=O)[O-])cc2)s1)c1ccccc1F the results were PDI turbidity inactive, SIRT5 block 21.6, S100A4 MyoIIA inactive, ERp5 block inactive and FGF22 binding inactive.
Screening Cc1ccc(S(=O)(=O)N[C@H]2CC[C@H](CCn3cc(-c4cccnc4)nn3)O[C@@H]2CO)cc1 returned SIRT5 block inactive, S100A4 MyoIIA inactive, ERp5 block inactive and FGF22 binding inactive.
For Cc1cccc(-c2cc(N3CCCN(C)CC3)n3nccc3n2)c1 the results were PDI turbidity inactive, Yeast UUG start inactive, SIRT5 block inactive, S100A4 MyoIIA 111.7, ERp5 block inactive and FGF22 binding inactive.
OCCN1CCN(c2cc(-c3ccc4ccccc4c3)nc3ccnn23)CC1 was read as PDI turbidity inactive, Yeast UUG start inactive, SIRT5 block inactive, S100A4 MyoIIA inactive, ERp5 block inactive and FGF22 binding inactive.
Screening CN1CCCN(c2cc(-c3ccc4ccccc4c3)nc3ccnn23)CC1 returned PDI turbidity inactive, Yeast UUG start inactive, SIRT5 block inactive, S100A4 MyoIIA 138.9, ERp5 block inactive and FGF22 binding inactive.
ON(CCc1ccncc1)Cc1ccccc1 was read as PDI turbidity inactive, Yeast UUG start inactive, S100A4 MyoIIA 72.1, ERp5 block inactive and FGF22 binding inactive.
For C[C@@H](NC(=O)C[C@H]1CC[C@H]2[C@@H](COC[C@H](O)CN2Cc2cc(F)ccc2F)O1)c1ccccc1 the results were Yeast UUG start inactive, SIRT5 block inactive, S100A4 MyoIIA inactive, ERp5 block inactive and FGF22 binding inactive.
`COC(=O)c1sccc1NC(=O)CSCCc1ccncc1` gave PDI turbidity inactive, SIRT5 block inactive, S100A4 MyoIIA inactive, ERp5 block inactive and FGF22 binding 43.4.
CC(Sc1ccsc1[N+](=O)[O-])C(=O)N1CCN(c2ccccn2)CC1 (stereo unspecified) was read as PDI turbidity inactive, Yeast UUG start inactive, SIRT5 block inactive, S100A4 MyoIIA inactive, ERp5 block inactive and FGF22 binding 44.1.
For CC(Sc1ccsc1[N+](=O)[O-])C(=O)NCc1ccccc1 (stereo unspecified) the results were SIRT5 block inactive, S100A4 MyoIIA inactive, ERp5 block inactive and FGF22 binding 43.2.
Screening C[C@@H]1CCCCO[C@H](CN(C)C(=O)Nc2ccc(F)cc2)[C@H](C)CN([C@H](C)CO)C(=O)c2cc(NS(=O)(=O)c3cccs3)ccc2O1 returned Yeast UUG start inactive, SIRT5 block inactive, S100A4 MyoIIA inactive, ERp5 block inactive and FGF22 binding inactive.
`C[C@H](CO)N1C[C@H](C)[C@H](CN(C)S(=O)(=O)c2ccc(Cl)cc2)Oc2ccc(NC(=O)C3CC3)cc2CC1=O` gave Yeast UUG start inactive, SIRT5 block inactive, S100A4 MyoIIA inactive, ERp5 block inactive and FGF22 binding inactive.
Screening COC(=O)C[C@@H]1CC[C@@H]2[C@H](COc3ccc(NS(=O)(=O)c4ccc(F)cc4)cc3C(=O)N2C)O1 returned ERp5 block inactive.
CC1(C)CN=C(c2ccccc2)NC1 was read as PDI turbidity inactive, Yeast UUG start inactive, S100A4 MyoIIA inactive, ERp5 block inactive and FGF22 binding 43.4.
